Patent publication US20260285845A1, “INHIBITOR OF COMPLEMENT FACTOR B” (NANJING CHIA TAI TIANQING PHARMACEUTICAL CO., LTD., priority 2023, published 2026)

System: collagen antibody and lipopolysaccharide-induced arthritis (CAIA)
Assay: Collagen antibody-induced mouse arthritis model (Experimental Example 4)
Assay type: in vivo, BALB/c mice
Details: Day3; 20 mg/kg oral, twice a day
Method: The data were analyzed by One-way ANOVA/Dunnett's using Graphpad Prism and by Repeat Measurement ANOVA/Bonferroni using SPSS.
Arthritis scoring: Starting from the day of modeling, the incidence of arthritis in the limbs of the animals in each group was observed three times a week until the end of the experiment. According to the different degrees of lesions (erythema and swelling), the scoring was carried out according to the standard of 0-4 points.
Joint swelling: Starting from the day of modeling, the thickness of the left and right foot pads of the animals was measured three times a week using a micrometer (Mitutoyo, 0-25 mm, minimal 0.001 mm) until the end of the experiment.

CCO[C@H]1CCN(Cc2c(OC)cc(C)c3[nH]ccc23)[C@H](c2ccc(C(=O)O)cc2)C1 [LNP023]
Thickness of foot pads (mm), Mean: 1.614 mm
